Key:
[1] = biological target: GC-A particulate guanylate cyclase receptors (Homo sapiens, UniProt P16066); assay: Cell cGMP assay in HEK293 cells stably transfected with GC-A; assay type: cell-based; conditions: 10^−10 M, 10^−8M, or 10^−6M polypeptide for 10 minutes (FIGS. 14, 15)
normal dogs = assay: Chimeric polypeptide intravenous infusion in normal dogs: blood glucose, plasma insulin, plasma cGMP; assay type: in vivo, dog; conditions: normal dogs (n=2), intravenous infusion 10 or 100 pmol/kg/minute for 45 minutes
normal rats = assay: Chimeric polypeptide infusion in normal rats: blood glucose and plasma insulin; assay type: in vivo, rat; conditions: IV infusion 1 pmol/kg/minute for 210 minutes
[2] = biological target: GC-B particulate guanylate cyclase receptors (Homo sapiens, UniProt P20594); assay: Cell cGMP assay in HEK293 cells stably transfected with GC-B; assay type: cell-based; conditions: 10^−10 M, 10^−8M, or 10^−6M polypeptide for 10 minutes (FIGS. 14, 15)

Protein sequences, listed by entry. Tags and fused reporters are not part of them. Lines headed by an entry give the natural chain unless they say otherwise; changes in a name come on top.
UniProt P16066: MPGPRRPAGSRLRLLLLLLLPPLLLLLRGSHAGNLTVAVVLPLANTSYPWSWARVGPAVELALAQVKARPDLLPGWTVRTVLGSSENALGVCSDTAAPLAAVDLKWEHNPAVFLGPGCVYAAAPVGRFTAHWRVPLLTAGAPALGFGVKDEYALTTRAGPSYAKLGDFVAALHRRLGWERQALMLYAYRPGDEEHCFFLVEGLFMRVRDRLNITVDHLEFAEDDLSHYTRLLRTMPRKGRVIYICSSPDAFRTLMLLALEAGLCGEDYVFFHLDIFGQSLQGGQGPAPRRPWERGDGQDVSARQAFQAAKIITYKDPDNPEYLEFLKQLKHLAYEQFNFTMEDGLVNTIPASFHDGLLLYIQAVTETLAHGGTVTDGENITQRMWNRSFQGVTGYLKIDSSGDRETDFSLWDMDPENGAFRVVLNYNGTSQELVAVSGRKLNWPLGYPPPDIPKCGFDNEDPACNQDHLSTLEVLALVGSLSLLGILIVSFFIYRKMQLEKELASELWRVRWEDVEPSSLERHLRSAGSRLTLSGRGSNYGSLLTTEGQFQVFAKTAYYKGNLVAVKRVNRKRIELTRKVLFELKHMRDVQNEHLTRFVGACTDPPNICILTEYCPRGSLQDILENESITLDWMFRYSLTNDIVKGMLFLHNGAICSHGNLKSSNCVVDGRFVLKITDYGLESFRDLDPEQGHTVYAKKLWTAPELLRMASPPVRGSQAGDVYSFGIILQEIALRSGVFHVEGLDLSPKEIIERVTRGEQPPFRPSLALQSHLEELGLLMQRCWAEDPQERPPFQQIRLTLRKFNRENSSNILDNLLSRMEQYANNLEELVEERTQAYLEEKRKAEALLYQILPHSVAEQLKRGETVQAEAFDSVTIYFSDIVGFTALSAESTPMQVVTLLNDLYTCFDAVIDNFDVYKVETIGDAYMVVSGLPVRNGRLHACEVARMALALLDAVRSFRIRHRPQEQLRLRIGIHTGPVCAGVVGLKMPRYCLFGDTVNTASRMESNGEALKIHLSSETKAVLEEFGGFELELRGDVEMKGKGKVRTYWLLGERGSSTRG
UniProt P20594: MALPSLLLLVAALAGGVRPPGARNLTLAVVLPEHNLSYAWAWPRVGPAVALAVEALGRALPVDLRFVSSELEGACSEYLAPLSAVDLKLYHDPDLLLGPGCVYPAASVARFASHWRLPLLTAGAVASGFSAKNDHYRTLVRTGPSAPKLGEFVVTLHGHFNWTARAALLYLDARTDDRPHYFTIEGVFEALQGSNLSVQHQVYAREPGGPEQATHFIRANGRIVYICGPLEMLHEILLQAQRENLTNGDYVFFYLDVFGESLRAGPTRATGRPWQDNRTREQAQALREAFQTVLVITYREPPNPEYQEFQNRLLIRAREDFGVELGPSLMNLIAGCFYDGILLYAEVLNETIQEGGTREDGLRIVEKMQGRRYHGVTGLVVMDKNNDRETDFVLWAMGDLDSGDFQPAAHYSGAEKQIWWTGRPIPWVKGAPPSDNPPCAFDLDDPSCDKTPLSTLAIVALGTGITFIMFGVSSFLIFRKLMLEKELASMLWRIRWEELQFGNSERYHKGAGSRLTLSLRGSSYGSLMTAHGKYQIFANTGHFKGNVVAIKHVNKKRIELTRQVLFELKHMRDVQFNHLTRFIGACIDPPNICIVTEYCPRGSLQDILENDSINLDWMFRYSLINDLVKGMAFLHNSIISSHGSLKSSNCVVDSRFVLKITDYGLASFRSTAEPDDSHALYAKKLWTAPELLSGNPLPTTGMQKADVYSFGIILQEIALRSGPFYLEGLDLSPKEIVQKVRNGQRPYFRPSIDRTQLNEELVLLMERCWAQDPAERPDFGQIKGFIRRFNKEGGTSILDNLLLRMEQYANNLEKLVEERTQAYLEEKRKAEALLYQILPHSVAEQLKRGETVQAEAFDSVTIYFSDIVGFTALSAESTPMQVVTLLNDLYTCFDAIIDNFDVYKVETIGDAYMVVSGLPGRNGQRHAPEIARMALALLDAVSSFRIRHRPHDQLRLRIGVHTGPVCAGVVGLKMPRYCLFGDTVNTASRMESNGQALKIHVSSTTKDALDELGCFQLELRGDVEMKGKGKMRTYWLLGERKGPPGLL

| Substance | activation of GC-A receptors (cGMP levels) [1] | plasma insulin (normal dogs; versus base line (FIG. 7)) | plasma glucose (normal dogs; versus base line (FIG. 8)) | plasma cGMP (normal dogs; versus base line (FIG. 9)) | plasma insulin (normal rats; compared to placebo control rats (FIGS. 10, 12)) | blood glucose (normal rats; compared to placebo control rats (FIGS. 11, 13)) | activation of GC-B receptors (cGMP levels) [2] |
| --- | --- | --- | --- | --- | --- | --- | --- |
| HGEGTFTSDSEAFIWLGRSPKMVQGSGCFGRK-MDRISSSSGLGCKVLRRH | activated the GC-A receptors | increase in plasma insulin | reduction in plasma glucose | increase | increased plasma insulin | lower blood glucose | but not the GC-B receptors |
| RMDRIGLSKGCFGLKLDRIGSMSG-LGCKVLRRHHGEGTFTSDSEAFIWLGR | activated both the GC-A and GC-B receptors | – | – | – | – | – | activated both the GC-A and GC-B receptors |

— US10336803B2, “Insulin secreting polypeptides” (Mayo Foundation for Medical Education and Research, priority 2013, dated 2019)
